The source of these data is ChEMBL document CHEMBL5096238 (J Med Chem, 2022).

The chains behind the UniProt entries cited, without tags or fusion partners. Where a name states a change or a piece, a line headed by the entry shows the natural chain unless it says otherwise.
UniProt P31751: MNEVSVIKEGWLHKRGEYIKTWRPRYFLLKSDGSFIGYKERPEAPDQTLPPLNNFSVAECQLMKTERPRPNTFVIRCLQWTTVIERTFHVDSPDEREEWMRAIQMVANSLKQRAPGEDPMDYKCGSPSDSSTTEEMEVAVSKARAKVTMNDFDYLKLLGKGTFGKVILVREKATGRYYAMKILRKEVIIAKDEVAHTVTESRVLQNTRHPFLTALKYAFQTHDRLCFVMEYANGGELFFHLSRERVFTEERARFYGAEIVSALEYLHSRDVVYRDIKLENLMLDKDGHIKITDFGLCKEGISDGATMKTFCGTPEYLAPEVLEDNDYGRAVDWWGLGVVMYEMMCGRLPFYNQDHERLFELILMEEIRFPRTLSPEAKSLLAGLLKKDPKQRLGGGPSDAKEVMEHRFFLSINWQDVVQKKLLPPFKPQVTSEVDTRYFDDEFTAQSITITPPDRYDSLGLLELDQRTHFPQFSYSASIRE
UniProt Q9Y243: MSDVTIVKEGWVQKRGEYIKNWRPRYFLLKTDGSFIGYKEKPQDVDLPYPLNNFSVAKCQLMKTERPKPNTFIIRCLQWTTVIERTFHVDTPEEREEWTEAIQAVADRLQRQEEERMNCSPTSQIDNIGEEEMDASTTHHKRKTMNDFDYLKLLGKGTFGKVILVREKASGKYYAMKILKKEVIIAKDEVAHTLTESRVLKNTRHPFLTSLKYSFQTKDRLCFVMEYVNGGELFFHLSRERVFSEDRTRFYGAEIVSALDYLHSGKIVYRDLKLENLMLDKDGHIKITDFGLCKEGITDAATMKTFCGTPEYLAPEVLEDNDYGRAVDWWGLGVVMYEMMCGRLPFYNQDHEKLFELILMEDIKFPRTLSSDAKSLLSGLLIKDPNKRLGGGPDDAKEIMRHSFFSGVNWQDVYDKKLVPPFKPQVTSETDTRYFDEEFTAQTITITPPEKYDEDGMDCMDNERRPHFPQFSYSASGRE
UniProt P31749: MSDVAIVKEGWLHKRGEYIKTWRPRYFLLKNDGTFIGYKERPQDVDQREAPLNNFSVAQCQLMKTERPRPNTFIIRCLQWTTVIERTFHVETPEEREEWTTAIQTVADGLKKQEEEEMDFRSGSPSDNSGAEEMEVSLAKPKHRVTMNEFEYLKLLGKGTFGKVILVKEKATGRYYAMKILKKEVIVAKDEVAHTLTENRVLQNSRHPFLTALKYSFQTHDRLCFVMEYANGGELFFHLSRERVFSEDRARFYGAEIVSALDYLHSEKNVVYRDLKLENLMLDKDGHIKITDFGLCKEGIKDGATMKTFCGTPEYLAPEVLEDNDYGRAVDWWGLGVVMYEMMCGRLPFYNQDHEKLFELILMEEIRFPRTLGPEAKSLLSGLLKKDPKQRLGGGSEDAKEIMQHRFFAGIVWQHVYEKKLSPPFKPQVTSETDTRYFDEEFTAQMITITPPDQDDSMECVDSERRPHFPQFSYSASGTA

The target of test [1] is T1, Tyrosine-protein kinase receptor UFO (Homo sapiens) (UniProt P30530).
T1 sequence (whole entry): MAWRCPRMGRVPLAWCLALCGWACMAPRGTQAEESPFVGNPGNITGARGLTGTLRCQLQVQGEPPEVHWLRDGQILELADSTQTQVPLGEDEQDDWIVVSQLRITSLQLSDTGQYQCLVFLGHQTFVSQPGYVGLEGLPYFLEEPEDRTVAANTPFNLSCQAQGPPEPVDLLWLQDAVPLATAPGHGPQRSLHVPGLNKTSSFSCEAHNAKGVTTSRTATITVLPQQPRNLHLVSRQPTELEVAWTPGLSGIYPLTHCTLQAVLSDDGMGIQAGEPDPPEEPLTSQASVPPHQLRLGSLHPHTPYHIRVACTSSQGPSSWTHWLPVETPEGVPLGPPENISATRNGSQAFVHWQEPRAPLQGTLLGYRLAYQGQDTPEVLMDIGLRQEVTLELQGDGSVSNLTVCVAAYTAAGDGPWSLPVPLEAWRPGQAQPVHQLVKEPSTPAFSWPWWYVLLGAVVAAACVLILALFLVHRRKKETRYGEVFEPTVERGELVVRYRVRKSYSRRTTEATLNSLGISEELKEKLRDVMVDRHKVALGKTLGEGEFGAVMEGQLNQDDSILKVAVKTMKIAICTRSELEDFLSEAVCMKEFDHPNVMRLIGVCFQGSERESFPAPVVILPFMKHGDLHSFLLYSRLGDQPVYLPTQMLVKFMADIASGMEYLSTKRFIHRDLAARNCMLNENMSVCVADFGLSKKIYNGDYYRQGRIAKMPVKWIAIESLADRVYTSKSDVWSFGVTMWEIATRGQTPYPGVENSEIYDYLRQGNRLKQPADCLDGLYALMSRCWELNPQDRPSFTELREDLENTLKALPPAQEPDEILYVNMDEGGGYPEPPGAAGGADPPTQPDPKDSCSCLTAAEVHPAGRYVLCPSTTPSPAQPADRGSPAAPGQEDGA
Conditions: dose 1000.0 nM.

Test [2] concerns the target Serine/threonine-protein kinase AKT (Homo sapiens) (UniProt P31751+Q9Y243+P31749). Conditions: Hs746T, dose 1.1-30 nM, time 12.0 hrs.

Regarding `CNC(=O)c1ccc(-c2ccc(=O)n(CCc3ccc4ncc(-c5cnn(C6CCOCC6)c5)cc4c3)n2)cc1C(F)(F)F`, the inhibition (usually the relative decrease from the control value, in per cent) in test [1] stood at 8%. On to `O=C1NCCCCn2cc(cn2)-c2cnc3ccc(cc3c2)CCn2nc(ccc2=O)-c2ccc1c(C(F)(F)F)c2`, for which the values for the inhibition result in test [2] and in test [1] were “Dde” and 9%, respectively.
